Assay results from patent US8546392B2, “17Beta-hydroxysteroid dehydrogenase type 1 inhibitors for the treatment of hormone-related diseases” (Universitaet des Saarlandes, priority 2008, dated 2013).

The chains behind the UniProt entries cited, without tags or fusion partners.
UniProt P05177, whole entry: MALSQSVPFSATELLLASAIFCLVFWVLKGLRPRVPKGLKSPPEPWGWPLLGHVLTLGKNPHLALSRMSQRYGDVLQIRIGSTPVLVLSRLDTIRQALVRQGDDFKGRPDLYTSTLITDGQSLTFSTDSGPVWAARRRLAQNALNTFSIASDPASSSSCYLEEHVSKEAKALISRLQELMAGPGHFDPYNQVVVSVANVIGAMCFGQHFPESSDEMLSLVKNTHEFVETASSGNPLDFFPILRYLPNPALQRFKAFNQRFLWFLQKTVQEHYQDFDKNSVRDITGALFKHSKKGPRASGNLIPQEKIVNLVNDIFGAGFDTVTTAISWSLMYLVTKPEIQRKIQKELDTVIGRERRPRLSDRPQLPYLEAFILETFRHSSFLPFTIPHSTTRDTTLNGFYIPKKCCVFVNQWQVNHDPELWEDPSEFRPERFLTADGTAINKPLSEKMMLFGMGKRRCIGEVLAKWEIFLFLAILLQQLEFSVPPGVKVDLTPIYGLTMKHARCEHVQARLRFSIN
UniProt P11712, whole entry: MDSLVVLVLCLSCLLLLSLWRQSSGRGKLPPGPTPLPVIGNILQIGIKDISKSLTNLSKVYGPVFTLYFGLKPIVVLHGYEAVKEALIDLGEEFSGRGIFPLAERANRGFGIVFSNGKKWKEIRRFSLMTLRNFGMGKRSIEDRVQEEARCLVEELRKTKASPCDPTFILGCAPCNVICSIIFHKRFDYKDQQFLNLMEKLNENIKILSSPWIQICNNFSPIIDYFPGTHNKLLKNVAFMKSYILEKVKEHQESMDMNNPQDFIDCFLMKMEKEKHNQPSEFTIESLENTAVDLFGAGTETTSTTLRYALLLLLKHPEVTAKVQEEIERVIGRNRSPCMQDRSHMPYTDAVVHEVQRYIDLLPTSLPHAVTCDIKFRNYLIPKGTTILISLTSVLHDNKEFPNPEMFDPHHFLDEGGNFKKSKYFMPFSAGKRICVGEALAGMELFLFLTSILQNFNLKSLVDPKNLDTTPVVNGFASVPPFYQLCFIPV
UniProt P33261, whole entry: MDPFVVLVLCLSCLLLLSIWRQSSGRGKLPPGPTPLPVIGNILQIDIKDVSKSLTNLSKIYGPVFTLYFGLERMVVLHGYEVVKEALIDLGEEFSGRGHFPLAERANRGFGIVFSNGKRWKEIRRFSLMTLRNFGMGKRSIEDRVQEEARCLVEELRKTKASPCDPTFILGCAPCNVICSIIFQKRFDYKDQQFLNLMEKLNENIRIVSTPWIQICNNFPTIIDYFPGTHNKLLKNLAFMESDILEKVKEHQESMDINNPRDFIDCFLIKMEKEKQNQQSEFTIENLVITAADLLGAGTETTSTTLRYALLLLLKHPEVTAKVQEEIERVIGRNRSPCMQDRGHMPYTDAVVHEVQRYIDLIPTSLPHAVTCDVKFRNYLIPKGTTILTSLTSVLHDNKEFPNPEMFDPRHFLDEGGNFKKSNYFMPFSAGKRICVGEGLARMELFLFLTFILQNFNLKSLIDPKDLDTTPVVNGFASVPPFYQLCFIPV

Tests used:
[1] = molecular target: CYP1A2 (Homo sapiens (Human), UniProt P05177); assay: P450 inhibition assay CYP1A2
[2] = molecular target: CYP2C9 (Homo sapiens (Human), UniProt P11712); assay: P450 inhibition assay CYP2C9
[3] = molecular target: CYP2C19 (Homo sapiens (Human), UniProt P33261); assay: P450 inhibition assay CYP2C19
[4] = Test for metabolic stability, liver microsomes; details: rat, pH 7.4

COc1ccc(-c2c(O)ccc3cc(-c4cccc(O)c4)ccc23)cn1 [Compound 62, 6-(3-Hydroxyphenyl)-1-(6-methoxypyridin-3-yl)naphthalene-2-ol]
IC50 [1]: 10.5 ± 0.29 µM
IC50 [2]: 1.25 ± 0.07 µM
IC50 [3]: 0.68 ± 0.056 µM
half-life [4]: 49.8 min
